Results from publication PMC6057488.

Biological target: F-actin and myosin II complexes (rabbit) (UniProt P68135)
Assay: far-Western, overlay or dot blot; 2-fold dilutions of in vitro polymerized F-actin (top 0.2 or 0.4 μM) or pre-assembled F-actin and myosin II complexes (top 0.04 or 0.2 μM) on nitrocellulose, probed with FLAG-tagged DNGR-1 ECD or CTLD (20 μg/mL), detected with HRP anti-FLAG (M2)

fold improvement of binding over F-actin alone: > 50 fold
Substance: FLAG-tagged recombinant dimeric mouse DC, NK lectin group receptor-1 (mDNGR-1) extracellular domain (ECD) (from UniProt Q8BRU4 57-238) (domain or fragment)
